Source: ChEMBL document CHEMBL1143532 (Bioorg Med Chem Lett, 2005)

Chains of the proteins cited; added tags and fusions are not shown.
UniProt Q05941, whole entry: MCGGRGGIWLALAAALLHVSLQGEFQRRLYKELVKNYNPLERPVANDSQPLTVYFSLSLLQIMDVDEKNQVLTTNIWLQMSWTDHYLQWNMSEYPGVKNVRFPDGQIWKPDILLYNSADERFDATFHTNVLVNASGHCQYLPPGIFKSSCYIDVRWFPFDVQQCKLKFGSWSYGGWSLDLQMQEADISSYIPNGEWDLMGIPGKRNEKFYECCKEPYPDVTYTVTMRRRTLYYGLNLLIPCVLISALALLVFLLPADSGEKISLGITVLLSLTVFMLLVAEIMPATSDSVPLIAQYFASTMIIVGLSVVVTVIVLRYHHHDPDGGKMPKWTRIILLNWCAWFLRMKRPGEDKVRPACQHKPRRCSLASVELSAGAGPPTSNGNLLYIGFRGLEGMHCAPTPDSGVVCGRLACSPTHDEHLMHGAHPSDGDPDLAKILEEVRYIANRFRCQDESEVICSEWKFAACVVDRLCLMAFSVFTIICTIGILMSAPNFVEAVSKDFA

Molecular target: Neuronal acetylcholine receptor subunit alpha-7 (Rattus norvegicus, UniProt Q05941)
Assay: Inhibitory constant against [3H]methyllycaconitine binding towards Nicotinic acetylcholine receptor alpha-7 of rat brain hippocampus
Assay type: tissue-based

Question: For `O=C(NC1CC1c1ccccc1)N[C@@H]1C2CCN(CC2)[C@@H]1Cc1cccnc1` (stereo partly specified), which Ki is on record?
Answer: The Ki was 104 nM.
